Measured values reported in PubChem BioAssay (Tox21).
Only a part is listed here, and it is no random draw. Results filed as inconclusive are left out. Active and inactive are the calls of the source. Calls follow the shape of the full dose curve.

biological target: Beta-2 adrenergic receptor (Homo sapiens) (UniProt P07550); experiment: Adrenergic beta2 receptor (ADRB2) small molecule agonists, cell-based qHTS assay (AID 1963593); conditions: CHO-ADRB2 cells, cAMP HTRF, 30 min; at 92.4 µM (top of the series) unless noted
Description: National Center for Advancing Translational Sciences [NCATS]
Division of Preclinical Innovation [DPI]
U.S. Environmental Protection Agency [EPA]
National Institutes of Environmental Health Sciences [NIEHS]
National Toxicology Program [NTP]
U.S. Food and Drug Administration [FDA]
Beta adrenergic receptors (Beta-ARs) belong to the G-protein coupled receptor (GPCR) superfamily, includes three subtypes - beta1, beta2, and beta3. Beta1-AR is the predominant receptor subtype expressed in the heart, and beta2-AR is expressed in the kidney, lung, blood vessel and in the heart, and beta3 is found in the adipocytes. Beta1 and 2 ARs couple to Gs protein and elevate cyclic adenosine mono phosphate (cAMP), which activates protein kinase A and leads to the downstream signaling responsible for the physiological actions. Beta-AR agonists or antagonists are the most prescribed therapeutic agents for heart failure and asthma, and these were one of the first target receptors for the rational drug design. Tox21 10K compound library was screened using the cAMP-Gs dynamic assay (Cisbio Bioassays, Shelton, CT) to identify agonists/antagonists of the Gs-coupled human adrenergic, beta2 receptor (ADRB2) in the CHO-ADRB2 cell line (Codex BioSolutions, Inc. Gaithersburg, MD), which stably over-expresses ADRB2. The principle of cAMP-Gs dynamic assay is based on HTRF technology, which facilitates the fluorescence resonance energy transfer (FRET) between donor Europium cryptate and acceptor d2-labeled cAMP. The cAMP generated within cells competes with the red acceptor, d2-labled cAMP, for binding to the monoclonal anti-cAMP-cryptate (Europium donor). An increase in intracellular cAMP leads to the disruption of FRET signal, and the signal is inversely proportional to the cAMP concentration. Isoproterenol HCl (Sigma-Aldrich, St. Louis, MO) was used as a positive control in the screening.
Tox21 Assay Protocol Summary:
CHO-ADRB2 cells were dispensed at 1,000/well in 4uL assay medium into white/solid 1536-well plates (Greiner Bio-One North America Inc., Monroe, NC) using a Multidrop Combi dispenser (ThermoFisher Scientific, Waltham, MA). The assay plates were incubated at 37C and 5% CO2 for an overnight (18-20hr). Then positive control and test compounds dissolved in DMSO were transferred to the assay plates at 23nL using a Pintool station (Wako, San Diego, CA). Following the compound and positive control transfer, 1uL stimulation mix containing 100uM IBMX and 25uM Ro-20-1724 was added to each well of the assay plates using BioRAPTR Flying Reagent Dispenser (FRD, Beckman Coulter, Brea, CA). The assay plates were incubated at room temperature for 0.5hr. Then 2.5ul each d2-labled cAMP and anti-cAMP-cryptate solutions were added separately to each well of the assay plates using an FRD and the assay plates were incubated at room temperature for 1hr.
% is scaled to controls: 0 for no effect and ±100 for the full control effect.

Row | Structure (SMILES) | activation
1 | CC(C)OP(=S)(OC(C)C)SCCNS(=O)(=O)c1ccccc1 | inactive: -1.16%
2 | CCCCC(CC)CO[P+](=O)OCC(CC)CCCC (stereo unspecified) | inactive: -9.51%
3 | O=P(Cl)(Cl)c1ccccc1 | inactive: 20.3%
4 | CCCCOP(OCCCC)OCCCC | inactive: 12.3%
5 | CCCCCCCCCCCCCC[P+](CCCCCC)(CCCCCC)CCCCCC | inactive: 14.6%
6 | CCOC(=O)Cl | inactive: 15%
7 | O=P(Cl)(Oc1ccccc1)Oc1ccccc1 | inactive: 7.75%
8 | O=C(Cl)Oc1ccccc1 | inactive: 20.7%
9 | O=[P+](Oc1ccccc1)Oc1ccccc1 | inactive: 7.75%
10 | CCCCO[P+](=O)OCCCC | inactive: 21.5%
11 | CC(C)CCCCCCCOP(OCCCCCCCC(C)C)Oc1ccccc1 | inactive: 5.82%
12 | ClP(Cl)c1ccccc1 | inactive: 20.3%
13 | CCOP(=S)(CC)Sc1ccccc1 (stereo unspecified) | inactive: 0.928%
14 | COC(=O)Cl | inactive: 7.88%
15 | COP(=S)(Cl)OC | inactive: 21.2%
16 | NC(=O)Nc1ccc([As](=O)(O)O)cc1 | inactive: 2.08% [at 42.5 µM]
